Shown are actives, neighbours in structure and some others; about 2.3% of the full set was active somewhere.
A549 tox = counter-screen for Nrf2 inhibitors: cytotoxicity in A549 cells | hit rate 0.16% among 390,000 | Potency, µM (highest dose often 46 µM), actives largely listed as inhibitors | A549 ARE-Fluc cells, CellTiter-Fluor viability, 18-24 h | AID 504648
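A549 ARE-Fluc cells in 5% FBS OPTI-MEM, 5000 cells/well, rested 2 h then exposed to compounds in concentration-response for 18-24 h at 37 °C. Viability by CellTiter-Fluor fluorescence (Ex 405/Em 525) after 30 min; luciferase luminescence (BugLite, 15 min, RT) read afterwards.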
GRP78 ERSR act = ER stress response induction in glioma; hit rate 0.02% among 420,000; U87-MG GRP78 promoter luciferase reporter, 16 h; AID 602332; Potency, µM, hits mostly activators; also: series mostly up to about 76 µM; nearly all actives have a fitted effect of over 35% in size
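Stably transfected U87-MG glioma cells carrying a GRP78-based luciferase sensor; 16 h compound incubation. Luminescence end-point read 10 min after Bright-Glo addition at room temperature.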
miR-21 reporter = raises the signal of a miR-21 reporter; HeLa miR-21 FLuc reporter, luciferase, 48 h; Potency, µM (top dose mostly 38.3 µM); AID 2288; 340,000 tested, under 10 active; active = well fitted rising curve with a large enough effect; inconclusive = small, poorly fitted or top-dose-only effect; inactive = no such curve, though single readings can be large or run the other way;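 note: miR-21 action dims this reporter so a rising signal means less miR-21 action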
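HeLa cells endogenously expressing miR-21, stably carrying CMV-driven firefly luciferase with a downstream miR-21 binding site, 2000 cells/well. Titrations up to approximately 40 uM, 48 hours; luciferase luminescence read.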
Mito fusion yeast = blocks mitochondrial division or promotes mitochondrial fusion. Potency, µM (top dose mostly 46.1 µM), usual class: activators. hit rate 0.23% among 320,000. S. cerevisiae fusion-defective mutant growth rescue, CellTiterGlo 48 h. AID 485298; also: nearly all actives have a fitted effect of over 45% in size
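Luminescent cell viability in 1536-well qHTS format served as the measure of rescued growth in ts fusion-mutant S. cerevisiae cultured on non-fermentable YPEG for 48 hours at 37C.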
Nrf2 inh = inhibitors of Nrf2 signaling | A549 ARE-Fluc reporter, luciferase luminescence, 18-24 h | Potency, µM (highest dose often 46 µM), actives largely listed as inhibitors | hit rate 2.1% among 360,000 | AID 504444; also: nearly all actives have a fitted effect of over 60% in size
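Quantitative HTS in A549 cells stably bearing an antioxidant response element-firefly luciferase construct. Inhibition of Nrf2-driven transcription was scored by luminescence after 18-24 h of compound exposure at 37 °C.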
Nrf2 ARE act = activators of Nrf2 (ARE) signaling; Potency, µM (series often up to 46.1 µM), hits mostly activators; AREc32 ARE-luciferase reporter (MCF7-derived line), luminescence, 24 h; hit rate 0.31% among 410,000; also: nearly all actives have a fitted effect of over 65% in size
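For detection, Steady-Glo was added and plates sat 30 min at RT; before that, AREc32_Fluc cells grown overnight in OPTI-MEM/5% FBS had been treated with 23 nL compound for 24 hr at 37 deg C.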
A number is an active result; . = inactive; ? = inconclusive; / = not tested or not shown. Unless noted, calls follow the shape of the dose curve; as a rule, active = well fitted curve in the direction sought with a large enough effect; inconclusive = small, poorly fitted or top-dose-only effect, or another doubt; inactive = no such curve, though single readings can be large; an effect the other way counts as inactive or inconclusive.

SMILES	A549 tox	GRP78 ERSR act	miR-21 reporter	Mito fusion yeast	Nrf2 inh	Nrf2 ARE act
CCc1ccc(/C=C(/C#N)c2nc(-c3ccc(C)cc3)cs2)cc1	.	.	.	/	.	.
CCOC(=O)c1c(C)nc2sc3c(=O)n(-c4ccc(C)cc4)cnc3c2c1-c1ccc(OC)cc1	.	.	.	.	.	.
CCOC(=O)c1c(C)nc2sc3c(=O)n(-c4ccc(C(C)=O)cc4)cnc3c2c1-c1ccc(Cl)cc1	.	.	.	.	23µM	.
CCOC(=O)c1c(C)nc2sc3c(=O)n(-c4ccc(C(C)=O)cc4)nnc3c2c1-c1ccc(Cl)cc1	?	.	.	.	18µM	.
Cc1cccc(NC(=O)N2CCC(CN3CCOCC3)CC2)c1C	.	.	.	/	?	.
Nc1nc(N2CCCCC2)nc(N(c2ccccc2)c2ccccc2)n1	.	.	.	.	.	.
Cc1cc(C)cc(-n2nnc(-c3nsc(NC(=O)c4ccccc4Cl)n3)c2C)c1	.	.	.	/	.	.
COc1cc(C=C(c2nc3ccccc3s2)c2nc3ccccc3s2)ccc1O	.	.	.	16µM	?	?
Cc1c(C(=O)Nc2cccc(Cl)c2)oc2ccc(S(=O)(=O)N3CCCCCC3)cc12	.	.	.	/	/	.
CCc1cccc(NC(=O)Cn2c(=O)n3nc(-c4cccc(F)c4)nc3c3ccccc32)c1	.	.	.	/	/	5.6µM
Oc1ccc(C2=NNC(=NCc3ccc4c(c3)OCO4)SC2)c(O)c1	.	.	.	.	.	.
Clc1ccc(C2=NNC(=NCc3ccc4c(c3)OCO4)SC2)cc1	?	.	.	.	23µM	.
Cc1nc2scc(C)n2c(=O)c1S(=O)(=O)Nc1ccc(F)cc1	.	.	.	.	?	.
CCCCOC(=O)c1ccc(NS(=O)(=O)c2c(C)nc3scc(C)n3c2=O)cc1	.	.	.	/	16µM	.
Cc1ccc(C(=O)n2nc(-c3ccco3)nc2N)cc1	.	.	.	.	?	.
Nc1nc(-c2ccco2)nn1C(=O)c1ccccc1Cl	.	.	.	.	1.8µM	.
O=C(COC(=O)c1cc[n+]([O-])cc1)Nc1ccc(Cl)cc1C(F)(F)F	.	.	/	.	.	.
COc1ccc(CNC(=O)c2cc(COc3c(F)cccc3F)on2)cc1OC	.	.	.	.	26µM	.
CCOc1ccc(Cl)cc1S(=O)(=O)N1CCN(c2ccc(F)cc2)CC1	.	.	.	.	.	.
O=C(c1ccc2n[nH]nc2c1)N1CCN(c2ccc(C(F)(F)F)cn2)CC1	.	.	/	.	15µM	.
O=C(c1ccccn1)N1CCN(c2ccc(C(F)(F)F)cn2)CC1	.	.	.	.	?	.
S=c1[nH]nc(-c2ccccn2)n1/N=C/c1ccc(-c2ccccc2Cl)o1	.	.	.	.	?	.
Clc1ccccc1C1=CC(c2ccco2)n2nnnc2N1 (configuration not stated)	.	.	.	.	.	?
Brc1ccc(C2=CC(c3ccco3)n3nnnc3N2)cc1 (configuration not stated)	.	.	.	.	.	5µM
CCOc1cc(C2C3=C(CC(C)(C)CC3=O)N(CCCOC)C3=C2C(=O)CC(C)(C)C3)ccc1OC	.	.	.	.	.	.
SMILES	A549 tox	GRP78 ERSR act	miR-21 reporter	Mito fusion yeast	Nrf2 inh	Nrf2 ARE act
CC(C)(C)NC(=O)CSc1nc2ccc(NC(=O)CSc3nnc(N)s3)cc2s1	.	.	.	.	21µM	.
Cc1nc(-c2c(C(F)(F)F)noc2-c2ccc(O)cc2O)cs1	.	.	.	.	.	.
CCOc1cc(C)c(-c2onc(C(F)(F)F)c2-c2csc(C)n2)c(O)c1	26µM	.	?	.	?	.
COc1ccc(NC(=O)N2CC3(CCN(C(=O)c4csnn4)CC3)C2)cc1	/	.	/	/	/	/
C[C@@H]1C[C@H]2[C@@H]3C[C@H](F)C4=CC(=O)C=C[C@]4(C)[C@@]3(F)[C@@H](O)C[C@]2(C)[C@@]1(O)C(=O)COC(=O)C(C)(C)C	.	.	.	.	0.052µM	.
CC1(C)C2(C#N)C(N)=NC3(OCCO3)C12C#N (configuration not stated)	.	.	.	.	/	.
COc1ccc(S(=O)(=O)NCc2ccncc2)cc1NC(=O)c1ccc(Cl)cc1	.	.	/	.	4.6µM	.
O=C(Nc1ccccc1)c1cc(S(=O)(=O)NCc2ccncc2)ccc1Cl	.	.	.	.	18µM	.
COc1ccc(S(=O)(=O)NCc2ccncc2)cc1NC(=O)c1ccccc1	.	.	/	.	6.5µM	.
CN(c1ccc(F)cc1)S(=O)(=O)c1ccc(Cl)c(C(=O)Nc2ccncc2)c1	.	.	/	.	18µM	.
COc1ccc(S(=O)(=O)NCc2cccnc2)cc1NC(=O)c1ccccc1	.	.	.	.	.	.
COc1cc(NC(=O)C(CC(C)C)NS(=O)(=O)c2ccc3c(c2)CCCC(=O)N3)cc(OC)c1 (configuration not stated)	.	.	.	/	?	.
O=C(C=CC=Cc1ccccc1)c1ccc([N+](=O)[O-])cc1	/	.	/	/	/	.
COc1ccc2c(c1)CCCC(Br)C2=O (configuration not stated)	.	.	/	/	.	.
Cc1ccc(CNc2cc(-c3nn4c(C)nnc4s3)ccc2C)s1	.	.	.	.	16µM	.
COc1ccccc1C=C1CCc2ccccc2C1=O	/	.	/	/	/	?
COc1cc(/C=C2\CC(C(C)(C)C)C/C(=C\c3cc(OC)c(OC)c(OC)c3)C2=O)cc(OC)c1OC (configuration not stated)	8.2µM	.	.	.	5.8µM	?
O=C1/C(=C\c2ccc(Br)o2)Cc2ccccc21	.	.	.	.	?	11µM
CCC1C/C(=C\c2cc(OC)c(OC)cc2OC)C(=O)/C(=C/c2cc(OC)c(OC)cc2OC)C1 (configuration not stated)	?	.	?	.	18µM	.
COc1cc(OC)c(OC)cc1/C=C1/Cc2ccccc2C1=O	.	.	.	.	.	5.6µM
C[C@@H]1CCCCO[C@@H](CN(C)C(=O)Cc2ccccc2)[C@@H](C)CN([C@H](C)CO)C(=O)c2cc(N(C)C)ccc2O1	/	.	/	/	/	.
O=C1C(=Cc2cccc(Cl)c2)Cc2ccccc21	/	.	/	/	/	10µM
COc1cc(/C=C2\CCc3ccccc3C2=O)cc(OC)c1OC	.	.	.	.	.	?
Cn1cccc1/C=C1\Cc2ccccc2C1=O	.	.	.	.	.	11µM
COc1cc(/C=C2/CCc3ccccc3C2=O)cc(OC)c1OC	.	?	.	.	15µM	?
COc1ccc(/C=C2/CCc3ccccc3C2=O)cc1OC	.	.	.	.	23µM	?
